ChEMBL document CHEMBL1132606, “Use of a pharmacophore model for the design of EGFR tyrosine kinase inhibitors: isoflavones and 3-phenyl-4(1H)-quinolones” (J Med Chem, 1999)

The chains behind the UniProt entries cited, without tags or fusion partners. Where a name states a change or a piece, a line headed by the entry shows the natural chain unless it says otherwise.
UniProt P00533, whole entry: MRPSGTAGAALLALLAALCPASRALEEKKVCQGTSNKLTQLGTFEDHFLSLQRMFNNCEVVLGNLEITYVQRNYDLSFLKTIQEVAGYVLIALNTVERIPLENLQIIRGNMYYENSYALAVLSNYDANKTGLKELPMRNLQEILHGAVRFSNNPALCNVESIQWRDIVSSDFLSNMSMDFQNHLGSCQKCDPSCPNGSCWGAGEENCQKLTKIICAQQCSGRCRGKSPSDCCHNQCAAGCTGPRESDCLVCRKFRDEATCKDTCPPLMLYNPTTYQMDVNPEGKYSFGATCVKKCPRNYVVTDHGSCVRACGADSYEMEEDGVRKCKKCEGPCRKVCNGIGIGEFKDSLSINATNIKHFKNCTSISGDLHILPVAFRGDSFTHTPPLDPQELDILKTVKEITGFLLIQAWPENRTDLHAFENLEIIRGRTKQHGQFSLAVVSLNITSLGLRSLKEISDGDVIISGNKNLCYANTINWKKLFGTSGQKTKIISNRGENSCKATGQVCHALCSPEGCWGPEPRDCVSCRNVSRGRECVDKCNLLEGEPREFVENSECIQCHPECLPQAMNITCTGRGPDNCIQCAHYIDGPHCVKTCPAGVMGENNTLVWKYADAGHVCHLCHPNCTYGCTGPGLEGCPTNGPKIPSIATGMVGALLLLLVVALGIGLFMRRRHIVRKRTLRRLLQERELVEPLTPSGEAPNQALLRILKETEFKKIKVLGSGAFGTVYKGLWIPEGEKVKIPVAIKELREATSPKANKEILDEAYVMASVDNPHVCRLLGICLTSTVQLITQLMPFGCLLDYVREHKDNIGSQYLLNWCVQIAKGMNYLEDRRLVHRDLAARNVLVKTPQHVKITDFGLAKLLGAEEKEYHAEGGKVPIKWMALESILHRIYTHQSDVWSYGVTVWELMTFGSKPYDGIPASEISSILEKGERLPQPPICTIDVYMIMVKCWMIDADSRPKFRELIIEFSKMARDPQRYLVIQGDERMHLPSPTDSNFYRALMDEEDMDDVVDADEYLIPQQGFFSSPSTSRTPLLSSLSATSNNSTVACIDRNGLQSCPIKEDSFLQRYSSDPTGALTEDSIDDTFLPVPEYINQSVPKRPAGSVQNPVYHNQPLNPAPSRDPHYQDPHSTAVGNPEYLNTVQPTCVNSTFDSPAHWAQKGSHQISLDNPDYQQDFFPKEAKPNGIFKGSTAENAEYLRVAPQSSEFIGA
UniProt P00519: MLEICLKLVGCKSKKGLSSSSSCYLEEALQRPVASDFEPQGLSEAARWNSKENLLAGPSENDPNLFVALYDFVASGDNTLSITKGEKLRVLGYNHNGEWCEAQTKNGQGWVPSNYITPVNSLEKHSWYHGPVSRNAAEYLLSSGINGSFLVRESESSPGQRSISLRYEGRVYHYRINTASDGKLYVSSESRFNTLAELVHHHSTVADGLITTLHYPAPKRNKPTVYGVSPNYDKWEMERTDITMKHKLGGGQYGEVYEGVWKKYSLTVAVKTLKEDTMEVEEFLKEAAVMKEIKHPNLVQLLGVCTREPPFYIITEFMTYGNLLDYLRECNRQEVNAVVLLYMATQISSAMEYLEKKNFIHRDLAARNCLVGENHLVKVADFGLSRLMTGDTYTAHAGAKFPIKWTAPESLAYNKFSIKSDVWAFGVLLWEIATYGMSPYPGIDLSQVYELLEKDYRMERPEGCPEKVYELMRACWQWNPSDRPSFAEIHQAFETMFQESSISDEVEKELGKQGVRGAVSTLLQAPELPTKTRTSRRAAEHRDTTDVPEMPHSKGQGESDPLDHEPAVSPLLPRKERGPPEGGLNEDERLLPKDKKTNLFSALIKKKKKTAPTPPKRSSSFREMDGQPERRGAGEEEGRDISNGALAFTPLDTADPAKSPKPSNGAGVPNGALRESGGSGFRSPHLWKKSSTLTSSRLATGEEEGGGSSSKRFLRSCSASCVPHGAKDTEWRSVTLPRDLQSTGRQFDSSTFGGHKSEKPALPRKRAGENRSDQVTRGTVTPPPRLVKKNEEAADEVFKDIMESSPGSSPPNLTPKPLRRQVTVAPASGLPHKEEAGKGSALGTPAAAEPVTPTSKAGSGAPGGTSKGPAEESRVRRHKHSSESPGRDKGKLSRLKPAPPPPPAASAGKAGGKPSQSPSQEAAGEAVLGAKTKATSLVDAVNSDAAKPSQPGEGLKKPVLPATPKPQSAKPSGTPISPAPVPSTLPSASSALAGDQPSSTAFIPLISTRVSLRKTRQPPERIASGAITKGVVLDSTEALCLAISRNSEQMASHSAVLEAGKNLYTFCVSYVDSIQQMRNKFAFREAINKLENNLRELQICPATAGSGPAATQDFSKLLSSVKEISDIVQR
UniProt P42684: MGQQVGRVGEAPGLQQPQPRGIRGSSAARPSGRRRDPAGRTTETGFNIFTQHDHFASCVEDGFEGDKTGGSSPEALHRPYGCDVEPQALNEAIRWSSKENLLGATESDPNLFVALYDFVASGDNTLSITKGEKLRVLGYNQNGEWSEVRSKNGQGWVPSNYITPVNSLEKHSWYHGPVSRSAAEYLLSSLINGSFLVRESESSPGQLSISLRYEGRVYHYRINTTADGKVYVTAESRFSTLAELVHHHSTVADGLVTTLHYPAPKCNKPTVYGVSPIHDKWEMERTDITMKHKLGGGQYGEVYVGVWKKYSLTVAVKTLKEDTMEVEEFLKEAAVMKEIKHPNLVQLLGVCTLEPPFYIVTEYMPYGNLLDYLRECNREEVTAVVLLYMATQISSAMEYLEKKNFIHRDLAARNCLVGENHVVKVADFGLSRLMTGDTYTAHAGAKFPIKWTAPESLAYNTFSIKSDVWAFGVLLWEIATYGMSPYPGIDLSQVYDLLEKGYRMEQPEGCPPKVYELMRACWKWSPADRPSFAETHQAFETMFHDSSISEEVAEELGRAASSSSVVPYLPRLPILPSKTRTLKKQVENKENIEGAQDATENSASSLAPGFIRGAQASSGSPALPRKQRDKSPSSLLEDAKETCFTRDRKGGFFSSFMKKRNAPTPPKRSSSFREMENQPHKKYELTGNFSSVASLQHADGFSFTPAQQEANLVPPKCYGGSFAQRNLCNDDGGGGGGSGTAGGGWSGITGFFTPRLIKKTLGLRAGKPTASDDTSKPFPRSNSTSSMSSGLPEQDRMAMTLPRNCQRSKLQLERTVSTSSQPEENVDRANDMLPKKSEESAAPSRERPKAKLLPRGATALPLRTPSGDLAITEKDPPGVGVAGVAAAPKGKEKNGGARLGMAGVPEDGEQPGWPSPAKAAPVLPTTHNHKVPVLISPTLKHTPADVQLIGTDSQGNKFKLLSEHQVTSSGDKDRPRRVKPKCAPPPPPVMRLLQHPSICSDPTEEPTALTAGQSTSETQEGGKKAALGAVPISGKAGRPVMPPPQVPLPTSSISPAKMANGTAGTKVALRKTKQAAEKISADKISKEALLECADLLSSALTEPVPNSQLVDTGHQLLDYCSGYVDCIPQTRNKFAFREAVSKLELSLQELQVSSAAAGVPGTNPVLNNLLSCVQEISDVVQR

How the values were obtained:
[1] = biological target: T1, Epidermal growth factor receptor (Homo sapiens, UniProt P00533); test: Inhibition of Epidermal growth factor receptor
[2] = biological target: Tyrosine-protein kinase ABL (Homo sapiens, UniProt P00519+P42684); test: Inhibition of v-Abl tyrosine kinase; format: protein assay
[3] = biological target: T1, Epidermal growth factor receptor; test: Inhibition of Epidermal growth factor receptor-dependent phosphorylation

Q: How did the pIC50 [1] turn out when `COc1cc2ncnc(Nc3cccc(Cl)c3)c2cc1OC` [TYRPHOSTIN AG-1478] was run?
A: 8.22

Q: What about the IC50 [2] of the same molecule?
A: 125 nM

Q: And the pIC50 [3]?
A: 6.92

pIC50: −log10 of the molar value.
